Measurements taken from ChEMBL document CHEMBL4229567, “Aiming to Miss a Moving Target: Bromo and Extra Terminal Domain (BET) Selectivity in Constrained ATAD2 Inhibitors” (J Med Chem, 2018).

Target: Bromodomain-containing protein 4 (Homo sapiens, UniProt O60885)
Test: Inhibition of 6His-tagged Thr-BRD4 (BD1) (1 to 477 residues) (unknown origin) expressed in Escherichia coli BL21(DE3) after 30 mins in presence of biotinylated triacetylated histone H4 peptide by alexa fluor 647 dyse based TR-FRET assay

IC50	SMILES
631 nM	Cc1cc2c(-c3cncc(N)c3)cnc(N[C@@H]3CCNC[C@H]3OCC3CCCCC3)c2[nH]c1=O
3980 nM	Cc1cncc(-c2ccc(N[C@@H]3CCNC[C@H]3OCC3CCS(=O)(=O)CC3)c3[nH]c(=O)c(C)cc23)c1
